Like-named read-outs stand apart in the source and are kept apart here.
Experiments:
[1] = Serum pharmacokinetics, stratum A; assay type: in vivo, human
[2] = assay type: in vivo, human; details: stratum A

CC1(COc2ccc3c(c2)ncn3-c2ccc3cccc(N4CCC(N)CC4)c3n2)COC1 [crenolanib]
CL/F ([1]; stratum A1 (whole tablets), 100 mg/m^2, D1, median (range)): 26.2 (14.3–49.7) L/h/m^2 | CL/F ([1]; stratum A1 (whole tablets), 100 mg/m^2, D28, median (range)): 27.5 (17.6–59.9) L/h/m^2 | CL/F ([1]; stratum A2 (crushed tablets), 100 mg/m^2, D1, median (range)): 32.9 (11.9–66.6) L/h/m^2 | CL/F ([1]; stratum A2 (crushed tablets), 100 mg/m^2, D28, median (range)): 32.6 (14.4–68.0) L/h/m^2 | CL/F ([1]; stratum A, 130 mg/m^2, D1, median (range)): 52.1 (20.6–111) L/h/m^2 | CL/F ([1]; stratum A, 130 mg/m^2, D28, median (range)): 17.6 (13.9–59.3) L/h/m^2 | CL/F ([1]; stratum A, 170 mg/m^2, D1, median (range)): 25.4 (15.0–62.8) L/h/m^2 | CL/F ([1]; stratum A, 170 mg/m^2, D28, median (range)): 13.2 (6.4–27.5) L/h/m^2 | CL/F ([1]; stratum A, 220 mg/m^2, D1, median (range)): 21.6 (7.9–98.4) L/h/m^2 | CL/F ([1]; stratum A, 220 mg/m^2, D28, median (range)): 13.7 (4.3–60.4) L/h/m^2 | Fatigue/lethargy ([2]; Level 1 (100 mg/m^2), Grade 1/2): 0 | Fatigue/lethargy ([2]; Level 1 (100 mg/m^2), Grade 3/4): 0 | Fatigue/lethargy ([2]; Level 2 (130 mg/m^2), Grade 1/2): 0 | Fatigue/lethargy ([2]; Level 2 (130 mg/m^2), Grade 3/4): 0 | Fatigue/lethargy ([2]; Level 3 (170 mg/m^2), Grade 1/2): 3 (50%) | Fatigue/lethargy ([2]; Level 3 (170 mg/m^2), Grade 3/4): 0 | Fatigue/lethargy ([2]; Level 4 (220 mg/m^2), Grade 1/2): 0 | Fatigue/lethargy ([2]; Level 4 (220 mg/m^2), Grade 3/4): 0

Source: paper PMC8717895 (Neuro-oncology Advances, 2021)
